Columns and labels:
subtype M of human STING = target: T1, subtype M of human STING (Homo sapiens, UniProt Q86WV6); experiment: type 1 interferon promoter luciferase reporter in STING-lacking cell lines transduced with subtype M of human STING; assay type: cell-based
T1 construct: expressed in transfected cells
Text: (§1) The cell lines for stably expressing each subtype of STING were constructed by transducing subtypes 1 and 3 of mouse STING and subtypes 1 and M of human STING into different cell lines lack of STING with lentivirus. Meanwhile, these cell lines stably expressed reporter luciferase mediated by the promoter of type 1 interferon. The content of type 1 interferon within the cells or supernatants could be directly detected after adding these cell lines to the medium or the medium with 30 M extracellular cyclic dinucleotides c-di-AMP or transfecting c-di-AMP into cells by using lipofectamine 2000 for 16 hours, or cells were lysed and mixed with the substrate of the luciferase. The fluorescence intensities were read out. The ratio of the fluorescence intensities from the same cells with or without c-di-AMP was used to reflect increase of the fluorescence intensities obtained after adding c-di-AMP.

Protein sequences, listed by entry. Tags and fused reporters are not part of them. Residues count along the entry.
UniProt Q86WV6, 120-379: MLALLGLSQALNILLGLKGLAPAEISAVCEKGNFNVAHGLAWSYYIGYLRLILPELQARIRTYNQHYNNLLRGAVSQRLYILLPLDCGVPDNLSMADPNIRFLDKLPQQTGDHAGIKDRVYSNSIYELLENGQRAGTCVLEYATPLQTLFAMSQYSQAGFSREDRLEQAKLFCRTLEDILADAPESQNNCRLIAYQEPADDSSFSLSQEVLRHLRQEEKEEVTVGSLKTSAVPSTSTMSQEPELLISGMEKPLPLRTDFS

subtype 1 of human STING = target: T2, subtype 1 of human STING (Homo sapiens, UniProt Q86WV6); experiment: type 1 interferon promoter luciferase reporter in STING-lacking cell lines transduced with subtype 1 of human STING; assay type: cell-based; conditions: c-di-AMP transfected into cells using lipofectamine 2000, 16 hours
T2 construct: expressed in transfected cells
Text: as §1

sensing of extracellular cyclic dinucleotide (ratio of fluorescence intensities with or without c-di-AMP) (subtype M of human STING; 30 M extracellular c-di-AMP in medium, 16 hours): sense extracellular cyclic dinucleotides
sensing of intracellular c-di-AMP (ratio of fluorescence intensities with or without c-di-AMP) (subtype M of human STING; c-di-AMP transfected into cells using lipofectamine 2000, 16 hours): could sense intracellular c-di-AMP
sensing of intracellular c-di-AMP (ratio of fluorescence intensities with or without c-di-AMP) (subtype 1 of human STING): could sense intracellular c-di-AMP
Compound: Nc1ncnc2c1ncn2[C@@H]1O[C@@H]2COP(=O)(O)O[C@H]3[C@@H](O)[C@H](n4cnc5c(N)ncnc54)O[C@@H]3COP(=O)(O)O[C@H]2[C@H]1O [c-di-AMP]

From patent publication US20240019418A1, “RECEPTORS FOR CYCLIC DINUCLEOTIDES AND METHODS FOR SCREENING AGONISTS OR INHIBITORS THEREOF” (GUANGZHOU WINKEY TECHNOLOGY CO., LTD., priority 2017, published 2024)
